How the values were obtained:
Conditions in all cases: Bos taurus
Nucleic Acid [1] = test system: Nucleic Acid
Nucleic Acid [2] = test system: Nucleic Acid; remark: listed apart in the source
Nucleic Acid [3] = test system: Nucleic Acid; remark: listed apart in the source
Nucleic Acid [4] = assay: Apparent equilibrium constant for binding to calf thymus DNA by competitive displacement fluorometric assay; format: functional
Summary of the method: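 Ethidium displacement from calf thymus DNA, [poly(dA-dT)]2 or [poly(dG-dC)]2 (1 μM each) in 10 mM Na2HPO4/10 mM NaH2PO4, 1 mM EDTA, pH 7.0, with 1.26 μM ethidium bromide. Drug (stock ~5 mM in DMSO) added serially; fluorescence read at 20 °C, ex 546/em 595 nm. C50 is the drug level giving 50% loss of bound-ethidium fluorescence, mean of three. Kapp = 1.26/C50 × 10^7.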

Row | Compound | K app (Nucleic Acid [1]) | K app (Nucleic Acid [2]) | K app (Nucleic Acid [3]) | K app (Nucleic Acid [4])
1 | CN(C)CCCN1Nc2c3ccccc3nc3c(C(=O)NCCN(C)C)ccc1c23 | 5.04e-07 M⁻¹ | 1.62e-07 M⁻¹ | 2.82e-08 M⁻¹ | –
2 | COc1ccc2c(c1)-c1nn(CCN(C)C)c3ccc(C(=O)NCCN(C)C)c(c13)N2 | 1.75e-06 M⁻¹ | 4.14e-07 M⁻¹ | 2.61e-07 M⁻¹ | –
3 | CN(C)CCNC(=O)c1ccc2c3c(c4cc([N+](=O)[O-])ccc4nc13)NN2CCN1CCCC1 | – | 3.71e-06 M⁻¹ | 1.57e-06 M⁻¹ | 1.1e+08 M⁻¹
4 | CN(C)CCNC(=O)c1ccc2c3c(c4cc(N)ccc4nc13)NN2CCN(C)C | – | 5.9e-07 M⁻¹ | 1.7e-06 M⁻¹ | 2.8e+08 M⁻¹
5 | CN(C)CCNC(=O)c1ccc2c3c(c4ccccc4nc13)NN2CCN1CCCCC1 | 2.03e-06 M⁻¹ | 1.02e-06 M⁻¹ | 3.7e-07 M⁻¹ | –
6 | CN(C)CCNC(=O)c1ccc2c3c(c4ccccc4nc13)NN2CCN1CCCC1 | 1.49e-07 M⁻¹ | 3.1e-07 M⁻¹ | 3.82e-08 M⁻¹ | –
7 | CN(C)CCN1Nc2c3ccccc3nc3c(C(=O)NCCN)ccc1c23 | 9.7e-07 M⁻¹ | 5.2e-07 M⁻¹ | 1.56e-07 M⁻¹ | –
8 | O=C(NCCN1CCCCC1)c1ccc2c3c(c4ccccc4nc13)NN2CCN1CCCCC1 | 4.19e-07 M⁻¹ | 1.13e-06 M⁻¹ | 4.8e-07 M⁻¹ | –
9 | CN(C)CCNC(=O)c1ccc2c3c(c4cc([N+](=O)[O-])ccc4nc13)NN2CCN(C)C | – | 6.3e-07 M⁻¹ | 0.000126 M⁻¹ | 1.42e+09 M⁻¹
10 | CN(C)CCCN1Nc2c3cc(O)ccc3nc3c(C(=O)NCCN(C)C)ccc1c23 | 7.88e-07 M⁻¹ | 1.8e-07 M⁻¹ | 4.7e-08 M⁻¹ | –
11 | O=C(NCCNCCO)c1ccc2c3c(c4ccccc4nc13)NN2CCN1CCCCC1 | – | 9.1e-07 M⁻¹ | 1.46e-06 M⁻¹ | 1.5e+08 M⁻¹
12 | COc1ccc2c(c1)-c1nn(CCCN(C)C)c3ccc(C(=O)NCCN(C)C)c(c13)N2 | 2.93e-07 M⁻¹ | 5e-07 M⁻¹ | 1.47e-07 M⁻¹ | –
13 | COc1ccc2c(c1)-c1nn(CCN3CCCCC3)c3ccc(C(=O)NCCN(C)C)c(c13)N2 | 1.54e-07 M⁻¹ | 1.73e-06 M⁻¹ | 5.7e-07 M⁻¹ | –
14 | COc1ccc2c(c1)-c1nn(CCN3CCCC3)c3ccc(C(=O)NCCN(C)C)c(c13)N2 | 3.5e-07 M⁻¹ | 3.2e-07 M⁻¹ | 3.4e-07 M⁻¹ | –
15 | CN(C)CCN1Nc2c3ccccc3nc3c(C(=O)NCCNCCO)ccc1c23 | – | 1.05e-06 M⁻¹ | 7.41e-06 M⁻¹ | 2.52e+09 M⁻¹
16 | CN(C)CCNC(=O)c1ccc2c3c(c4cc(O)ccc4nc13)NN2CCN1CCCC1 | 1.26e-06 M⁻¹ | 7.98e-07 M⁻¹ | 1.2e-08 M⁻¹ | –
17 | CN(C)CCCNC(=O)c1ccc2c3c(c4ccccc4nc13)NN2CCCN(C)C | 2.74e-07 M⁻¹ | 3.8e-07 M⁻¹ | 9.4e-08 M⁻¹ | –
18 | CN(C)CCNC(=O)c1ccc2c3c(c4cc(O)ccc4nc13)NN2CCN(C)C | 3.39e-07 M⁻¹ | 9.7e-07 M⁻¹ | 1.86e-07 M⁻¹ | –
19 | O=C(NCCNCCO)c1ccc2c3c(c4ccccc4nc13)NN2CCN1CCCC1 | – | 6.66e-07 M⁻¹ | 6.1e-07 M⁻¹ | 3.02e+07 M⁻¹
20 | CN(C)CCNC(=O)c1ccc2c3c(c4cc([N+](=O)[O-])ccc4nc13)NN2CCN1CCCCC1 | – | 1.35e-05 M⁻¹ | 0.000242 M⁻¹ | 9.69e+08 M⁻¹
21 | CCN(CC)CCNC(=O)c1ccc2c3c(c4ccccc4nc13)NN2CCN(CC)CC | 4.34e-07 M⁻¹ | 9.3e-07 M⁻¹ | 3.9e-07 M⁻¹ | –
22 | CN(C)CCCNC(=O)c1ccc2c3c(c4ccccc4nc13)NN2CCN(C)C | 2.68e-07 M⁻¹ | 2.07e-07 M⁻¹ | 1.23e-08 M⁻¹ | –
23 | CN(C)CCNC(=O)c1ccc2c3c(c4ccccc4nc13)NN2CCN(C)C | 4.85e-07 M⁻¹ | 2.45e-07 M⁻¹ | 7.27e-08 M⁻¹ | –
24 | CN(C)CCNC(=O)c1ccc2c3c(c4cc(N)ccc4nc13)NN2CCN1CCCCC1 | 3.24e-07 M⁻¹ | 3.5e-06 M⁻¹ | 1.64e-06 M⁻¹ | –
25 | CN(C)CCNC(=O)c1ccc2c3c(c4cc(O)ccc4nc13)NN2CCN1CCCCC1 | 1.43e-06 M⁻¹ | 7.9e-07 M⁻¹ | 2.86e-06 M⁻¹ | –

Reference: ChEMBL document CHEMBL1134414, “Synthesis, antitumor cytotoxicity, and DNA-binding of novel N-5,2-di(omega-aminoalkyl)-2,6-dihydropyrazolo[3,4,5-kl]acridine-5-carboxamides” (J Med Chem, 2001)
